In patent publication US20240139185A1, “COMPOUNDS THAT PARTICIPATE IN COOPERATIVE BINDING AND USES THEREOF” (Revolution Medicines, Inc., priority 2018, published 2024):

Columns and labels:
pERK in H358 cells = test: pERK inhibition in H358 cells; settings: read-out: Cellular pERK inhibition, 4 hours treatment
Summary of the method: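 Human lung cancer H358 cells in RPMI/10% FBS were exposed to compound or DMSO for 4 h. Fixed and permeabilized cells were stained overnight at 4 C with anti-phospho-ERK1/2 (Thr202/Tyr204). Near-infrared imaging read the pERK signal at 800 nm, with DRAQ5 at 700 nm.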

cyclophilin A (CYPA) = cyclophilin A (CYPA) (Homo sapiens, UniProt P62937); test: CYPA-compound binary complex formation by SPR; settings: read-out: CYPA Binding Affinity
Summary of the method: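 CypA-Avi captured on a Biotin CAPture chip (4 μg/ml), reference flow cell subtracted. Compounds injected as 10-point 2-fold dilutions from 50 μM in HBS-P+ pH7.4 with 2% DMSO; 60 s association and 60 s dissociation, solvent-corrected. Affinity obtained by steady-state fitting.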

[1] = target: BRAF-GTP-KRAS-G12C complex (Homo sapiens, UniProt P01116+P62937, G12C); test: KRAS-BRAF complex disruption through competition with CYPA-compound by TR-FRET; settings: read-out: BRAF-GTP-KRAS-G12C Disruption; biochemical BRAF-KRAS G12C-GTP disruption assay EC50, with CYPA
Summary of the method: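 His6-KRAS G12C-GTP (1-169, 50 nM) with tagless CypA (1-165, 500 nM) was incubated with compound for 3 h at room temperature in pH 7.3 Hepes/NaCl/MgCl2 buffer containing GST-BRAF RBD. Anti-His Eu (10 nM) and anti-GST APC (50 nM) were then added for 1.5 h, and the 665/615 nm TR-FRET ratio was read. EC50 from 4-parameter fit; for specificity, wild-type KRAS replaced G12C, and CypA was omitted to test presenter dependence.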

Structure (SMILES) | IC50 (pERK in H358 cells) [µM] | Kd (cyclophilin A (CYPA)) [µM] | EC50 [1] [µM]
C=CC(=O)N1CCC[C@@H](C(=O)N(C)[C@H](C(=O)N[C@H]2Cc3cc(O)cc(c3)-c3ccc4c(C(C)(C)C#N)cn(c4c3)CC(C)(C)COC(=O)[C@@H]3CCCN(N3)C2=O)C(C)C)C1 | > 10 | 5 to 15 | > 5
C=CC(=O)N1CC[C@H](C(=O)N(C)[C@H](C(=O)N[C@H]2Cc3cc(O)cc(c3)-c3ccc4c(C(C)(C)C#N)cn(c4c3)CC(C)(C)COC(=O)[C@@H]3CCCN(N3)C2=O)C(C)C)C1 | > 10 | > 15 | > 5
C=CC(=O)N1CC[C@@H](C(=O)N(C)[C@H](C(=O)N[C@H]2Cc3cc(O)cc(c3)-c3ccc4nc(C)n(c4c3)CC(C)(C)COC(=O)[C@@H]3CCCN(N3)C2=O)C(C)C)C1 | > 10 | 5 to 15 | 0.5 to 5
Cc1nc2ccc3cc2n1C(C)CCOC(=O)[C@@H]1CCCN(N1)C(=O)[C@@H](NC(=O)[C@H](C(C)C)N(C)C(=O)C1CN(C(=O)CCl)C1)Cc1cc(O)cc-3c1 (stereo partly drawn) | > 10 | < 5 | > 5
C=CC(=O)N1CCC(C(=O)N(C)[C@H](C(=O)N[C@H]2Cc3cc(O)cc(c3)-c3ccc4c(C(C)(C#N)CC#N)cn(c4c3)CC(C)(C)COC(=O)[C@@H]3CCCN(N3)C2=O)C(C)C)C1 (stereo partly drawn) | 1 to 10 | < 5 | < 0.5
CC(C)[C@@H](C(=O)N[C@H]1Cc2cc(O)cc(c2)-c2ccc3c(c2)N(CC(C)(C)COC(=O)[C@@H]2CCCN(N2)C1=O)CC31COc2ccccc21)N(C)C(=O)C1CN(C(=O)CCl)C1 (stereo partly drawn) | < 1 | 5 to 15 | < 0.5
C=CC(=O)N1CCC(C(=O)N(C)[C@H](C(=O)N[C@H]2Cc3cc(O)cc(c3)-c3ccc4c(C(C)(C)C#N)cn(c4c3)CC(c3ccccc3)COC(=O)[C@@H]3CCCN(N3)C2=O)C(C)C)C1 (stereo partly drawn) | < 1 | < 5 | 0.5 to 5
C=CC(=O)N1CC[C@H](C(=O)N(C)[C@H](C(=O)N[C@H]2Cc3cc(O)cc(c3)-c3ccc4c(c3)c(cn4C(C)(C)C#N)CC(C)(C)COC(=O)[C@@H]3CCCN(N3)C2=O)C2CCC2)C1 | 1 to 10 | 5 to 15 | 0.5 to 5
C=CC(=O)N1CCC[C@H](C(=O)N(C)[C@H](C(=O)N[C@H]2Cc3cc(O)cc(c3)-c3ccc4c(C(C)(C)C#N)cn(c4c3)CC(C)(C)COC(=O)[C@@H]3CCCN(N3)C2=O)C(C)C)C1 | > 10 | 5 to 15 | > 5
CC(C)[C@@H](C(=O)N[C@H]1Cc2cc(O)cc(c2)-c2ccc3c(CCC#N)cn(c3c2)CC(C)(C)COC(=O)[C@@H]2CCCN(N2)C1=O)N(C)C(=O)C1CN(C(=O)[C@@H](C)Cl)C1 | > 10 | < 5 | 0.5 to 5
CC(C)[C@@H](C(=O)N[C@H]1Cc2cc(O)cc(c2)-c2ccc3c(-c4ccccc4OC(F)F)cn(c3c2)CC(C)(C)COC(=O)[C@@H]2CCCN(N2)C1=O)N(C)C(=O)C1CN(C(=O)CCl)C1 | 1 to 10 | > 15 | < 0.5
COc1nn2c3cc(ccc13)-c1cc(O)cc(c1)C[C@H](NC(=O)[C@H](C(C)C)N(C)C(=O)C1CN(C(=O)CCl)C1)C(=O)N1CCC[C@H](N1)C(=O)OCC(C)(C)C2 | < 1 | 5 to 15 | < 0.5
COc1cccc(C#N)c1-c1cn2c3cc(ccc13)-c1cc(O)cc(c1)C[C@H](NC(=O)[C@H](C(C)C)N(C)C(=O)C1CN(C(=O)CCl)C1)C(=O)N1CCC[C@H](N1)C(=O)OCC(C)(C)C2 | < 1 | 5 to 15 | < 0.5
CC(C)[C@@H](C(=O)N[C@H]1Cc2cc(O)cc(c2)-c2ccc3c(Cc4ccncc4)cn(c3c2)C[C@H](C)COC(=O)[C@@H]2CCCN(N2)C1=O)N(C)C(=O)C1CN(C(=O)CCl)C1 | 1 to 10 | < 5 | < 0.5
CC(C)[C@@H](C(=O)N[C@H]1Cc2cc(O)cc(c2)-c2ccc3c4ccccc4n(c3c2)C[C@H](C)COC(=O)[C@@H]2CCCN(N2)C1=O)N(C)C(=O)C1CN(C(=O)CCl)C1 | 1 to 10 | > 15 | < 0.5
CC1COC(=O)[C@@H]2CCCN(N2)C(=O)[C@@H](NC(=O)[C@H](C(C)C)N(C)C(=O)C2CN(C(=O)[C@@H](C)Cl)C2)Cc2cc(O)cc(c2)-c2ccc3c(c2)c(cn3C(C)(C)C#N)C1 (single isomer, unassigned) [260] | 1 to 10 | < 5 | > 5
CC#CC(=O)N1CC[C@H]1C(=O)N(C)[C@H](C(=O)N[C@H]1Cc2cc(O)cc(c2)-c2ccc3nc(C)n(c3c2)CC(C)(C)COC(=O)[C@@H]2CCCN(N2)C1=O)C(C)C | > 10 | < 5 | > 5
C=CC(=O)N1CC[C@H](C(=O)N(C)[C@H](C(=O)N[C@H]2Cc3cc(O)cc(c3)-c3ccc4c(c3)c(cn4C(C)(C)C#N)CC(C)(C)COC(=O)[C@@H]3CCCN(N3)C2=O)[C@@H](C)CC)C1 | < 1 | < 5 | 0.5 to 5
CC#CC(=O)N1CCC[C@H]1C(=O)N(C)[C@H](C(=O)N[C@H]1Cc2cc(O)cc(c2)-c2ccc3c(C(F)F)nn(c3c2)C[C@H](C)COC(=O)[C@@H]2CCCN(N2)C1=O)C(C)C | > 10 | < 5 | > 5
CN(C(=O)C1CN(C(=O)CCl)C1)[C@@H](CC1CCCC1)C(=O)N[C@H]1Cc2cc(O)cc(c2)-c2ccc3c(C(C)(C)C#N)cn(c3c2)CC(C)(C)COC(=O)[C@@H]2CCCN(N2)C1=O | > 10 | < 5 | 0.5 to 5
CC(C)[C@@H](C(=O)N[C@H]1Cc2cc(O)cc(c2)-c2ccc3c(C(C)(C)C#N)cn(c3c2)CC(C)(C)COC(=O)[C@@H]2CCCN(N2)C1=O)N(C)C(=O)C1CCN(C(=O)CCl)C1 (single isomer, unassigned) | 1 to 10 | 5 to 15 | < 0.5
CC(C)[C@@H](C(=O)N[C@H]1Cc2cc(O)cc(c2)-c2ccc3c(C(F)(F)F)nn(c3c2)CC(C)(C)COC(=O)[C@@H]2CCCN(N2)C1=O)N(C)C(=O)C1CN(C(=O)CCl)C1 | < 1 | > 15 | < 0.5
C=CC(=O)N1CCC(C(=O)N(C)[C@H](C(=O)N[C@H]2Cc3cc(cc(C(F)F)c3)-c3ccc4c(C#N)cn(c4c3)CC(C)COC(=O)[C@@H]3CCCN(N3)C2=O)C(C)C)C1 (stereo partly drawn) | > 10 | < 5 | > 5
COc1cccc2c1c1ccc3cc1n2C[C@H](C)COC(=O)[C@@H]1CCCN(N1)C(=O)[C@@H](NC(=O)[C@H](C(C)C)N(C)C(=O)C1CN(C(=O)CCl)C1)Cc1cc(O)cc-3c1 | > 10 | > 15 | < 0.5
COCC1COC(=O)[C@@H]2CCCN(N2)C(=O)[C@@H](NC(=O)[C@H](C(C)C)N(C)C(=O)C2CN(C(=O)CCl)C2)Cc2cc(O)cc(c2)-c2ccc3c(C(C)(C)C#N)cn(c3c2)C1 (single isomer, unassigned) | > 10 | > 15 | < 0.5
CC(C)[C@@H](C(=O)N[C@H]1Cc2cc(O)cc(c2)-c2ccc3c(C(C)(C)C#N)cn(c3c2)CC(C)(C)COC(=O)[C@@H]2CCCN(N2)C1=O)N(C)C(=O)[C@H]1CCCN(C(=O)CCl)C1 | > 10 | 5 to 15 | 0.5 to 5
CC(C)[C@@H](C(=O)N[C@H]1Cc2cc(O)cc(c2)-c2ccc3c(-c4cccc5ncsc45)cn(c3c2)CC(C)(C)COC(=O)[C@@H]2CCCN(N2)C1=O)N(C)C(=O)C1CN(C(=O)[C@@H](C)Cl)C1 | > 10 | 5 to 15 | > 5
CC(C)[C@@H](C(=O)N[C@H]1Cc2cc(O)cc(c2)-c2ccc3c(-c4cccc5scnc45)cn(c3c2)CC(C)(C)COC(=O)[C@@H]2CCCN(N2)C1=O)N(C)C(=O)C1CN(C(=O)[C@@H](C)Cl)C1 | > 10 | 5 to 15 | > 5
C=CC(=O)N1CC2(CCN([C@H](C(=O)N[C@H]3Cc4cc(O)cc(c4)-c4ccc5c(c4)c(cn5CC#N)CC(C)COC(=O)[C@@H]4CCCN(N4)C3=O)C(C)C)C2=O)C1 (stereo partly drawn) | > 10 | < 5 | 0.5 to 5
